Laboratory results published in PMC3152585 (Dental materials : official publication of the Academy of …, 2011).

Chains of the proteins cited; added tags and fusions are not shown. Residues count along the entry.
UniProt P14780, 107-707 limits assumed: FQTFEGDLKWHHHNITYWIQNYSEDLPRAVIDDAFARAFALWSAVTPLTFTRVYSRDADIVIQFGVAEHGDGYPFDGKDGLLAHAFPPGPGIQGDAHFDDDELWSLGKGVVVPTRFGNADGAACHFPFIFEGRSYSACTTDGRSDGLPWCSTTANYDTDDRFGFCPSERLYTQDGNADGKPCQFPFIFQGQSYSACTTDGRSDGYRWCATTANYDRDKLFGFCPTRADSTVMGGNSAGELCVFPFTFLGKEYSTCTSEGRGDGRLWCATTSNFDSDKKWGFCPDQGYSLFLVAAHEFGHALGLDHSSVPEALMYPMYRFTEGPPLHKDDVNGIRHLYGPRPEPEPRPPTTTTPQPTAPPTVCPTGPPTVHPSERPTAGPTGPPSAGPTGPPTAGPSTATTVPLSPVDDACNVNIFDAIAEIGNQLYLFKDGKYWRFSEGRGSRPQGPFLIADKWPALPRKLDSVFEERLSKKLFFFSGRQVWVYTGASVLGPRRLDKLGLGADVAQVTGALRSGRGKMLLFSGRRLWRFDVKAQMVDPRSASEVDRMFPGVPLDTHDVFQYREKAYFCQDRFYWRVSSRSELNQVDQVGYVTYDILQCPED

Target: recombinant human MMP-9 (rhMMP-9) (Homo sapiens, UniProt P14780)
Assay: Sensolyte Generic MMP colorimetric assay with soluble rhMMP-9
Details: from regression of percent inhibition vs alcohol concentration; mean ± SEM, n=5

- IC50 (moles/L) for rhMMP-9: 1.7 ± 0.04%^c moles/L
Structure (SMILES): CCCCCO [1-pentanol]

Marks after values point to notes of the source that are not given here.
